# Source: US20240400986A1, “MEMBRANE BOUND COMPOSITIONS AND METHODS RELATING TO SAME” (FLAGSHIP PIONEERING INNOVATIONS VII, LLC, priority 2021, published 2024)
# Tested on: cardiomyocytic cell line derived from human ventricular heart tissue
# Experiment: Small molecule compound screen of gigasome production in cardiomyocytic monocultures;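 further: gigasomes shed into the culture medium were imaged by confocal microscopy and counted as round particles lacking nuclear signal, extrapolated to the whole well, fold change is relative to DMSO vehicle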
# Conditions: cardiomyocytes
smiles,measurement,setting,value
CC(N)=NCc1cccc(CN)c1.Cl.Cl [1400W dihydrochloride],Fold Change of Gigasomes Produced vs. DMSO,"Table 22, dose 10 nM, 24 hours",1.25-1.5
same,Fold Change of Gigasomes Produced vs. DMSO,"Table 23 (down-regulators), dose 10 nM",1.25-1.5
same,Fold Change of Gigasomes Produced vs. DMSO,"Table 23 (down-regulators), dose 100 nM",0.75-1.0
same,Fold Change of Gigasomes Produced vs. DMSO,"Table 23 (down-regulators), dose 1000 nM",0.75-1.0
same,Fold Change of Gigasomes Produced vs. DMSO,"Table 23 (down-regulators), dose 10000 nM",0.5-0.75
